Conditions: human, in vivo; for CL/F (maximum) / CL/F (mean ± SD) / CL/F (minimum): 130 mg; for AUCt (maximum) / AUCt (mean ± SD) / AUCt (minimum) / AUC∞ (maximum) / AUC∞ (mean ± SD) / AUC∞ (minimum) / Cmax (maximum) / Cmax (mean ± SD) / Cmax (minimum) / Tmax (maximum) / Tmax (mean ± SD) / Tmax (minimum) / t1/2 (harmonic mean, with pseudo-standard deviation where printed) / t1/2 (maximum) / t1/2 (minimum): 135 mg

| CL/F (maximum) | CL/F (mean ± SD) | CL/F (minimum) | AUCt (maximum) | AUCt (mean ± SD) | AUCt (minimum) | AUC∞ (maximum) | AUC∞ (mean ± SD) | AUC∞ (minimum) | Cmax (maximum) | Cmax (mean ± SD) | Cmax (minimum) | Tmax (maximum) | Tmax (mean ± SD) | Tmax (minimum) | t1/2 (harmonic mean, with pseudo-standard deviation where printed) | t1/2 (maximum) | t1/2 (minimum) | Substance |
| --- | --- | --- | --- | --- | --- | --- | --- | --- | --- | --- | --- | --- | --- | --- | --- | --- | --- | --- |
| 1.65 L/h | 0.95 ± 0.29 L/h | 0.55 L/h | 224.7 µg·h/mL | 143.5 ± 41.1 µg·h/mL | 77.9 µg·h/mL | 238.4 µg·h/mL | 148.4 ± 44.5 µg·h/mL | 78.8 µg·h/mL | 8010 ng/mL | 6400 ± 930 ng/mL | 4600 ng/mL | 10.0 h | 5.0 ± 2.1 h | 3.0 h | 21.34 ± 7.36 h | 34.83 h | 11.98 h | 2-[4-(4-chlorobenzoyl)phenoxy]-2-methyl-propanoic acid Choline salt [Formulation 5] |
| 1.99 L/h | 1.29 ± 0.38 L/h | 0.75 L/h | 170.6 µg·h/mL | 108.4 ± 34.0 µg·h/mL | 64.6 µg·h/mL | 174.2 µg·h/mL | 110.4 ± 34.9 µg·h/mL | 65.4 µg·h/mL | 8430 ng/mL | 4030 ± 1460 ng/mL | 1960 ng/mL | 18.0 h | 7.9 ± 3.3 h | 4.0 h | 18.71 ± 5.14 h | 25.01 h | 9.71 h | 2-[4-(4-chlorobenzoyl)phenoxy]-2-methyl-propanoic acid Choline salt [Formulation 6] |
